Chains of the proteins cited; added tags and fusions are not shown. Residues count along the entry.
UniProt Q62469, 27-1178, chain 1 of 2: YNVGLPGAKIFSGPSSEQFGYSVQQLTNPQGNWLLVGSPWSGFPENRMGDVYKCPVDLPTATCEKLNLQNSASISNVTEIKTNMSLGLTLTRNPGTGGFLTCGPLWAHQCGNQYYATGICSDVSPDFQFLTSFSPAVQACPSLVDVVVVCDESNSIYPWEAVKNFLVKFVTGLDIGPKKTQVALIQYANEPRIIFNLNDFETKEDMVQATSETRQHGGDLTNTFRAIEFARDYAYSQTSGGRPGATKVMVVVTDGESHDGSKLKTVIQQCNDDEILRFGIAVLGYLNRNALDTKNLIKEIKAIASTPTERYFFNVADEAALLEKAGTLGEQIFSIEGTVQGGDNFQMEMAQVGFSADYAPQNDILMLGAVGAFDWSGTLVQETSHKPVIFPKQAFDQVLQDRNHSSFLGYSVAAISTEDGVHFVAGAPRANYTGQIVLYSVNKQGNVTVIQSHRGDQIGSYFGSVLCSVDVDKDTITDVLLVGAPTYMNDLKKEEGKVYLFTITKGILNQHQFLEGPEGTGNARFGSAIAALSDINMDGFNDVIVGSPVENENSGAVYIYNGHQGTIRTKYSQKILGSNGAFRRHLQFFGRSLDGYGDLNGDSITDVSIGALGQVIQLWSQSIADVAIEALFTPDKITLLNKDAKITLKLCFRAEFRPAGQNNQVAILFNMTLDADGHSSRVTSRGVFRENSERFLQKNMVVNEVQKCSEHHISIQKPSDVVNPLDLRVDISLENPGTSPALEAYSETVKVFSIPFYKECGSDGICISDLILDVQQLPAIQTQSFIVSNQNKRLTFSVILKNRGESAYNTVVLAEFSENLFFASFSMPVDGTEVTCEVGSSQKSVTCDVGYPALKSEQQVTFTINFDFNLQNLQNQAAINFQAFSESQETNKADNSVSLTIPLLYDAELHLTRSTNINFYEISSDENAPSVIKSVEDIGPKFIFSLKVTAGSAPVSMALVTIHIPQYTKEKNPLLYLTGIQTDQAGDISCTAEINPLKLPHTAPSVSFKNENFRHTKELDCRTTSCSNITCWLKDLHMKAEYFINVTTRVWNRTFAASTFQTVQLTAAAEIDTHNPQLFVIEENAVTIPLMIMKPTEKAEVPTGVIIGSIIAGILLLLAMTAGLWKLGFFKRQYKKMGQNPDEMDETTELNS

According to patent US20130036481A1:

Target: α2 integrin (α2β1) on mouse cortical cultures (mouse) (UniProt Q62469)
Assay: cell-based or functional assay

“Amyloid Beta (Aβ) peptide, length not stated for this assay” was tested, and the Aβ toxicity in wild type mouse cortical cultures (% of control), three doses of Aβ was 73 to 97 % of control.
